Columns and labels:
[1] = tested on: Karpas 422; assay: Mouse xenograft model with CD20 expressing lymphoma cell line, tumor volume; type: in vivo; conditions: single dose of Y-90 ibritumomab tiuxetan
Description: Treatments were initiated 1 week after implantation when tumors became palpable. Tumor volumes were measured periodically with calipers. Tumor volume was calculated using the equation: volume=length×width×depth×0.5236 […]. Two independent experiments were done and the tumor volumes were expressed as means±SE. In this tumor xenograft model, the tumor volume of the control group continued to increase with time.

[2] = tested on: bone marrow cells; assay: Bone marrow protection against Y-90 ibritumomab tiuxetan-induced damage (H&E, γ-H2AX, TUNEL staining); type: in vivo, BALB/c mice; conditions: 200 μCi Y-90 ibritumomab tiuxetan via tail vein, no LDA
Description: FIG. 1. γ-H2AX and TUNEL staining of bone marrow sections at different time points after Y-90 ibritumomab tiuxetan treatment. Balb/c mice were pretreated with or without low-dose arsenic (LDA) for three days, followed by administration of 200 μCi Y-90 ibritumomab tiuxetan (Y90) via tail vein injection. At the indicated time points, mice were sacrificed by cervical […] and bone marrows were harvested for staining. (A) Quantification of γ-H2AX positive cells. (B) Quantification of TUNEL positive cells in bone marrow sections. *P<0.05, **P<0.01, ***P<0.001.
In addition to our in vitro and in vivo work with LDA in the setting of IR and chemotherapy as described herein, we have also developed a preclinical model to assess the efficacy of LDA as a cytoprotective agent from the bone marrow toxicity of radioimmuno- and radiopharmaceutical therapy using Y-90 ibritumomab tiuxetan as a model. […]
Bone marrow damage was analyzed histologically with hematoxylin and eosin (H&E) staining, DNA DSBs were assessed by γ-H2AX staining and apoptosis was detected by terminal deoxynucleotidyl transferase dUTP nick end labeling (TUNEL) staining. […]

B1: Y-90 ibritumomab tiuxetan: an anti-CD20 antibody conjugated to radioactive yttrium used to treat lymphoma (conjugate, chains of the INN, looked up)
heavy: QAYLQQSGAELVRPGASVKMSCKASGYTFTSYNMHWVKQTPRQGLEWIGAIYPGNGDTSYNQKFKGKATLTVDKSSSTAYMQLSSLTSEDSAVYFCARVVYYSNSYWYFDVWGTGTTVTVSAPSVYPLAPVCGDTTGSSVTLGCLVKGYFPEPVTLTWNSGSLSSGVHTFPAVLQSDLYTLSSSVTVTSSTWPSQSITCNVAHPASSTKVDKKIEPRGPTIKPCPPCKCPAPNLLGGPSVFIFPPKIKDVLMISLSPIVTCVVVDVSEDDPDVQISWFVNNVEVHTAQTQTHREDYNSTLRVVSALPIQHQDWMSGKEFKCKVNNKDLPAPIERTISKPKGSVRAPQVYVLPPPEEEMTKKQVTLTCMVTDFMPEDIYVEWTNNGKTELNYKNTEPVLDSDGSYFMYSKLRVEKKNWVERNSYSCSVVHEGLHNHHTTKSFSR
light: QIVLSQSPAILSASPGEKVTMTCRASSSVSYMHWYQQKPGSSPKPWIYAPSNLASGVPARFSGSGSGTSYSLTISRVEAEDAATYYCQQWSFNPPTFGAGTKLELKRADAAPTVFIFPPSDEQLKSGTASVVCLLNNFYPREAKVQWKVDNALQSGNSQESVTEQDSKDSTYSLSSTLTLSKADYEKHKVYACEVTHQGLSSPVTKSFN
modifications: tiuxetan chelator with yttrium-90
[1]
  tumor growth (tumor volume): marked tumor growth suppression
[2]
  damage to bone marrow cells (loss of cellularity): severe damage to bone marrow cells
